The record followed here is US4835162A (priority 1987, dated 1989).

Where two headings read alike, the source gives them in different places.

Test [1] has as its system nicotinic receptors (rat brain membranes). In kind it is binding. To be noted: for IC50: read-out: 3H-Nicotine Binding IC50.
Test [2] has as its target nicotinic receptors (rat brain membranes). To be noted: read-out: 3H-MCC Binding IC50.

Broadly, the IC50 is the concentration needed to halve the response being measured.

As for `CCN(CC)CCOC(=O)c1ccc(N)cc1` [procaine, reference compound], in test [1], the “binding affinity for nicotine receptor, in words” value was “some binding affinity” and the IC50 was found to be 70 µM. In addition, the 50% inhibitory concentration (IC50) in test [2] worked out at 30 µM.

Turning to `COC(=O)[C@H]1[C@@H](OC(=O)c2ccccc2)C[C@@H]2CC[C@H]1N2C` [cocaine, reference compound], the IC50 in test [1] and in test [2] was over 100 µM throughout.
